The source of these data is patent US20260256963A1, “Combined Therapy with Nanoparticles and Radiopharmaceuticals” (Université de Montpellier, priority 2022, published 2026).

The nature of series [1]: Maximum tolerated activity in nude mice. The class given is in vivo.
The test system of series [2] is SK-OV-3-luc tumor cell xenografts. Description: Kaplan-Meier survival of mice bearing intraperitoneal SK-OV-3-luc xenografts. Type of series: in vivo. The settings on record: from xenograft date to bioluminescence of 4×10^10 photons/s; 5 MBq and/or AGuiX® 2×5 mg per day at 24 h and 72 h.
The conditions of series [3]: IP injection, radioactivity in the tumor.

Take “^177Lu-Trastuzumab: Trastuzumab (Herceptin, Roche) conjugated with p-SCN-benzyl-DOTA, labeled with ^177Lu at specific activity 200 MBq/mg”: the “Maximum Tolerated Activity (MTA)” value in series [1] came out at 10 MBq. For the same substance, in series [2], the Median survival is on record as 69 days. Besides, the “Incorporation of the radiolabeled antibody in the tumor over time” value in series [3] is “increases between 0 and 48 h and then decreases”.
